Test results as given in US6365373 (Genentech, dated 2002).

B1: NGF124 (ligand)
chain: SSSHPIFHRGEFSVCDSESLWVTDKTTATDIKGKEVMVLGEVNINNSVFKQYFFETKCRDPNPVDSGCRGIDSKHWNSQCKTTQTYVKALTMDGKQAAWRFIRIDTACVCVLSRKAVRRA
B2: NGF126 (ligand)
chain: B1 chain with Q79Y
B3: NGFR1 (ligand)
chain: B1 chain with T23G, Q79Y, Y86F

Target: T1, human trkA receptor immunoadhesin (trkA extracellular domain fused to immunoglobulin constant domains) (human, UniProt P04629 33-423)
T1 construct: extracellular domain; not shown: immunoglobulin constant domains
Assay: competitive displacement of labeled NGF from human trkA immunoadhesin, 96-well plate

Row | Binder | IC50mut/IC50NGF [ratio]
1 | B1 | 1.1
2 | B2 | 1.6
3 | B3 | 1.1

Changes are numbered by the printed parent chain.
